Apparent affinities of Ab-14 variants for a coronavirus HR2 peptide

The target is the same throughout: PDVDLGDISGINAS, from the HR2 region of SARS-CoV-2 spike.

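The parent was found by panning a naive human phage display library on the peptide. In library AAYL50, one, two or three CDR residues were substituted; doubles and triples were drawn at random. The assay is AlphaSeq: two haploid yeast populations carry antibody and antigen on their surface. Mating (16 h, 30 °C) was followed by selection of diploids and sequencing of their barcodes. Scores were corrected for input abundance and mapped to Kd with protein pairs of known affinity run in the same pool. Each pool was mated in three replicate cultures.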

Each scFv is VH, a 15-residue (Gly4Ser)3 linker, VL, as in the parent Ab-14, and differs from it in the CDRs of the light chain only.
VH: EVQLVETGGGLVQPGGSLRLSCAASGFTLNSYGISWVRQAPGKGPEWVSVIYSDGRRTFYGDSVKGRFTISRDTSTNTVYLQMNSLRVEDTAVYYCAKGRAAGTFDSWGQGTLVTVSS
VL: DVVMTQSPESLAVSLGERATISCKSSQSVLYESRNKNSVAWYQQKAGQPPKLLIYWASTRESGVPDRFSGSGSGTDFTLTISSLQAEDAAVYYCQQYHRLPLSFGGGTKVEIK

Positions count from residue 1 of the parent VL; N35I puts I in place of N. Affinities are written as log10 Kd with Kd in nM; a lower number is a better binder. Replicates are averaged; those with no signal do not enter the mean. An entry "nd" has no value in the source: the pair was not observed among the diploids in that replicate. This suggests poor binding but is not conclusive. In this assay the parent's reference entry averaged 0.65; its copy inside this library read 1.68.

For N35I+S58Y+R99N, the assay gave nd, nd, nd (controls 0 of 9).
For V39A+A40H+E61M, the assay gave 5.94, nd, nd (controls 1 of 9).
For T59S+S62F+H98F, the assay gave 1.76, 1.72, 1.82 (mean 1.77; controls 3 of 9).
For Q96W+H98W, the assay gave 0.55, 0.90, 0.79 (mean 0.75; controls 0 of 9).
For E32V+A57K+S62W, the assay gave nd, 3.57, nd (controls 2 of 9).
For S62Q+Y97D+P101H, the assay gave 4.68, nd, 4.49 (mean 4.59; controls 4 of 9).
For S26T+S62V+L102G, the assay gave 4.01, nd, nd (controls 0 of 9).
For Q27N+E32M+R99V, the assay gave 1.65, 1.63, 1.70 (mean 1.66; controls 0 of 9).
For E32Q+T59V+H98Y, the assay gave 2.21, 2.43, 2.94 (mean 2.53; controls 1 of 9).
For L30K+Y31Q+Q96T, the assay gave 2.95, 2.40, 2.73 (mean 2.69; controls 1 of 9).
For V29A+L30Y+V39N, the assay gave 5.53, 4.98, 6.87 (mean 5.80; controls 8 of 9).
For L30C+P101S, the assay gave nd, nd, nd (controls 3 of 9).
For S58G+Y97L, the assay gave 3.68, nd, 3.18 (mean 3.43; controls 3 of 9).
For A57D+S58C+P101V, the assay gave 3.84, 3.43, 4.34 (mean 3.87; controls 5 of 9).
For S25F+N35H+R60C, the assay gave 2.35, 2.25, 2.47 (mean 2.35; controls 5 of 9).
For S33Y+R99E, the assay gave 2.07, 1.87, 2.67 (mean 2.20; controls 0 of 9).
For S26C+V29S+H98F, the assay gave 1.57, 1.60, 1.71 (mean 1.63; controls 6 of 9).
For Y31H+R34T+A40H, the assay gave 3.91, nd, nd (controls 0 of 9).
For R34C+A40M+R60T, the assay gave nd, nd, nd (controls 0 of 9).
For S33D+K36M+S103D, the assay gave 1.82, 1.70, nd (mean 1.76; controls 0 of 9).
For Q27N+N35K+N37C, the assay gave nd, 3.49, nd (controls 2 of 9).
For T59W+Y97N+H98R, the assay gave 2.13, 1.92, 2.16 (mean 2.07; controls 1 of 9).
For L30R+N37E+R60G, the assay gave nd, nd, nd (controls 1 of 9).
For K24Y+W56I+A57K, the assay gave 5.19, 4.28, nd (mean 4.73; controls 4 of 9).
For V29W+E32H+S58M, the assay gave nd, nd, 5.49 (controls 1 of 9).
For H98R+S103Q, the assay gave 2.71, 2.32, 3.86 (mean 2.96; controls 0 of 9).
For Q95C+R99F+P101A, the assay gave nd, nd, nd (controls 0 of 9).
For E32K+N35M+T59I, the assay gave 1.67, 1.34, 1.05 (mean 1.35; controls 1 of 9).
For S28F+E61L, the assay gave 2.18, 1.84, 2.21 (mean 2.08; controls 1 of 9).
For Q27H+Q95P+P101E, the assay gave nd, nd, nd (controls 0 of 9).
For L30Y+Y31P+T59F, the assay gave 1.30, 1.58, 1.50 (mean 1.46; controls 2 of 9).
For S25P+V29D+A40D, the assay gave nd, nd, nd (controls 0 of 9).
For Y97M+L102M, the assay gave 1.41, 1.63, 1.46 (mean 1.50; controls 2 of 9).
For E32S+S38E+V39E, the assay gave 3.45, nd, nd (controls 0 of 9).
For R60W+Y97N+L100D, the assay gave nd, nd, nd (controls 1 of 9).

The 3 strongest on average among those seen in every replicate, once more:

The variant Q96W+H98W gave 0.55, 0.90, 0.79 (mean 0.75; controls 0 of 9).
The variant E32K+N35M+T59I gave 1.67, 1.34, 1.05 (mean 1.35; controls 1 of 9).
The variant L30Y+Y31P+T59F gave 1.30, 1.58, 1.50 (mean 1.46; controls 2 of 9).

Background: pairings of library AAYL50 with three empty control strains gave a value in 18% of cases (median 4.19, 5th percentile 2.99). Values in that range, when seen in few replicates, are hard to tell from nonspecific mating. The control count says in how many pairings with the empty strains this scFv gave a signal.

Values reported by Engelhart et al. 2022, doi:10.1038/s41597-022-01779-4 (FLAb copy).